Literature values in patent US12138398B2, “Methods and devices for providing a stimulus to a subject to induce gamma oscillations” (Massachusetts Institute of Technology, priority 2015, dated 2024).

Tested on: AD patients
Details: AD subjects; cited from earlier work

In the case of bapineuzumab, the “clinical outcome on cognition” value is given as “lack of cognitive benefit”.
